Literature values as cited in patent US20240408145A1, “Gene Therapy” (Ospedale San Raffaele S.r.l., priority 2021, published 2024).

Protein sequences, listed by entry. Tags and fused reporters are not part of them.
UniProt P27361, whole entry, species assumed: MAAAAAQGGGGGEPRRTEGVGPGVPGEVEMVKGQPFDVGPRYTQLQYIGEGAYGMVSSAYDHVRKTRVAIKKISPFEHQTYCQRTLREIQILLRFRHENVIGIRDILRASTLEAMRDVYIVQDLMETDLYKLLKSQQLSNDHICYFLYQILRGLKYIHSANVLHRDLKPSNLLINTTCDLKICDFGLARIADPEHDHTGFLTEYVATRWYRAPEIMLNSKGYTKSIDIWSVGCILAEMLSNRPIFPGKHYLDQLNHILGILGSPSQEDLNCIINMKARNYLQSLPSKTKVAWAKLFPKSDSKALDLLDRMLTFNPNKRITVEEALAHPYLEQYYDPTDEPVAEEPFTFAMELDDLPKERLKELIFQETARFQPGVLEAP
UniProt P28482, whole entry, species assumed: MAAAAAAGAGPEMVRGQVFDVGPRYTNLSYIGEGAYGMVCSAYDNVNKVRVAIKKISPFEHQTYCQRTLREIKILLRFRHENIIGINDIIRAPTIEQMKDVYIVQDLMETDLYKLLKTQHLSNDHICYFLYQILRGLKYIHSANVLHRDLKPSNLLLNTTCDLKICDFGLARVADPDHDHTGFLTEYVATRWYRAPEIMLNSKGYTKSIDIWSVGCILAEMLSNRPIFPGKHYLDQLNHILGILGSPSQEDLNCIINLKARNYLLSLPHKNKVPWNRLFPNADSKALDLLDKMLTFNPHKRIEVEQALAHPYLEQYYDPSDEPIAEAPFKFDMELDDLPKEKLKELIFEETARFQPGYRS

Assays:
ERK1 = ERK1 (Homo sapiens, UniProt P27361); conditions: cited from earlier work
ERK2 = ERK2 (Homo sapiens, UniProt P28482); conditions: cited from earlier work

SMILES: Nc1n[nH]c2nnc(-c3c(-c4ccccc4)nn4ccccc34)cc12 [FR180204, 5-(2-Phenyl-pyrazolo[1,5-a]pyridin-3-yl)-1H-pyrazolo[3,4-c]pyridazin-3-ylamine]
- IC50 (ERK1): 310 nM
- IC50 (ERK2): 140 nM
